Target: Calcineurin (Homo sapiens, UniProt P63098+Q08209)
Assay: Calcineurin activity measurement (malachite green based assay)
Settings: compound complexed with hCypA only (15 µM)

Sequences of proteins named here, by UniProt entry; tags and fusion partners are left off. Residues count along the entry.
UniProt P63098, 2-170 limits assumed: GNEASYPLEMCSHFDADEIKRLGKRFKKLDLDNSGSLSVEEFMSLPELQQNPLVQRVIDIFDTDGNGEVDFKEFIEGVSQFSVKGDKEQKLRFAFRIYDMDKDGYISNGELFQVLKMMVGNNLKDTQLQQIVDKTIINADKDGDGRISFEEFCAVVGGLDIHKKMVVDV

`C/C=C/C[C@@H](C)[C@@H](O)[C@H]1C(=O)N[C@@H](CC)C(=O)N(C)CC(=O)N(C)[C@@H](CC(C)C)C(=O)N[C@@H](C(C)C)C(=O)N(C)[C@@H](CC(C)C)C(=O)N[C@@H](C)C(=O)N[C@H](COCC(=O)NCCCCCNC(=O)C=CC[C@@H]2/C=C(\C)C[C@H](C)C[C@H](OC)[C@H]3O[C@@](O)(C(=O)C(=O)N4CCCC[C@H]4C(=O)O[C@H](/C(C)=C/[C@@H]4CC[C@@H](O)[C@H](OC)C4)[C@H](C)[C@@H](O)CC2=O)[C@H](C)C[C@@H]3OC)C(=O)N(C)[C@@H](CC(C)C)C(=O)N(C)[C@@H](CC(C)C)C(=O)N(C)[C@@H](C(C)C)C(=O)N1C` was tested, and the “/C50-values, CaN inhibition” value was “lower micromolar range”.
For `C/C=C/C[C@@H](C)[C@@H](O)[C@H]1C(=O)N[C@@H](CC)C(=O)N(C)CC(=O)N(C)[C@@H](CC(C)C)C(=O)N[C@@H](C(C)C)C(=O)N(C)[C@@H](CC(C)C)C(=O)N[C@@H](C)C(=O)N[C@H](COCC(=O)NCCCCCCCCCNC(=O)C=CC[C@@H]2/C=C(\C)C[C@H](C)C[C@H](OC)[C@H]3O[C@@](O)(C(=O)C(=O)N4CCCC[C@H]4C(=O)O[C@H](/C(C)=C/[C@@H]4CC[C@@H](O)[C@H](OC)C4)[C@H](C)[C@@H](O)CC2=O)[C@H](C)C[C@@H]3OC)C(=O)N(C)[C@@H](CC(C)C)C(=O)N(C)[C@@H](CC(C)C)C(=O)N(C)[C@@H](C(C)C)C(=O)N1C`, the “/C50-values, CaN inhibition” value was “nanomolar concentrations”.
